The values below come from ChEMBL document CHEMBL1127843, “2-(3,4-Dichlorophenyl)-N-methyl-N-[(1S)-1-(3-isothiocyanatophenyl)-2-(1-pyrrolidinyl)ethyl]acetamide: an opioid receptor affinity label that produces selective and long-lasting kappa antagonism in mice” (J Med Chem, 1994).

The structures appear in SMILES notation.

The subject of one experiment is Mus musculus. Briefly: Compound was evaluated for […] antagonist activity towards Mouse vas deferens(MVD). It is filed as functional.
The next experiment deals with Cavia porcellus. Briefly: Compound was evaluated for In vivo antagonist activity towards guinea pig ileum(GPI). It is filed as functional, organism-based.

As for `CN(C(=O)Cc1ccc(Cl)c(Cl)c1)[C@H](CN1CCCC1)c1ccccc1`, the IC50 with Mus musculus was 1.6 nM; in the experiment on Cavia porcellus, 0.199 nM.
